These results are taken from PMC5352116.

By UniProt entry, the sequences of proteins in these tests, tags left out.
UniProt P50591, whole entry: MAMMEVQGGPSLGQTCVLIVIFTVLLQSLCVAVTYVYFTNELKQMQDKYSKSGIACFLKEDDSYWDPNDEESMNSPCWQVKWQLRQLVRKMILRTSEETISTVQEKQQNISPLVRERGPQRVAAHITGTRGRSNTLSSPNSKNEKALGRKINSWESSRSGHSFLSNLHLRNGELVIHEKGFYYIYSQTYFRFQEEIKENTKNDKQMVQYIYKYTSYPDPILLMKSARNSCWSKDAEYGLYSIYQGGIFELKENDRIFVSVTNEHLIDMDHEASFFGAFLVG

For the assay, the target named is Death Receptor 5 (DR5) (human (endogenous in MCF-10A-Tr)) (UniProt O14763).

Consider “Tumor Necrosis factor Related Apoptosis Inducing Ligand (TRAIL) (from UniProt P50591 1-281)”, for which the apoptotic cells by annexin V-FITC/PI dual staining (FACS), MCF-10A-Tr cells treated with TRAIL (10 ng/mL) + QC (2.5 uM) worked out at 42%.
